This assay concerns the target BPTF-PHD-Bromo (BPTF-PB), GST tag removed (human, UniProt Q12830 2865-3033). Description: ITC. On the technique in general: Isothermal titration calorimetry measures the heat released or taken up as one component is titrated into another.

Here are results for four molecules from paper PMC6961217 (Journal of Advanced Research, 2019).

The Kd is the constant that tells how readily two partners part at equilibrium. Lower therefore signals tighter binding.

For ARTKQTARKSTGGKAPR (K4 tri-methylation (me3); K9 crotonylation (cr)) [H3(1–17) H3K4me3K9cr peptide], binding was put at a Kd of 17.5 µM. This counts as double-digit micromolar.
The figure for ARTKQTARKSTGGKAPR (K4 tri-methylation (me3); K9 2-hydroxybutyrylation (hib)) [H3(1–17) H3K4me3K9hib peptide] is 14.1 µM; for ARTKQTARKSTGGKAPR (K4 tri-methylation (me3); K9 butyrylation (bu)) [H3(1–17) H3K4me3K9bu peptide] it is 27.6 µM; for ARTKQTARKSTGGKAPR (K4 tri-methylation (me3); K9 acetylation (ac)) [H3(1–17) H3K4me3K9ac peptide] it is 15.8 µM.
